Results as given in PubChem BioAssay AID463173 (ICCB-Longwood Screening Facility, Harvard Medical School, 2010).
This is a selection; strong and weak results do not stand in their true shares. Some of these compounds have results that are not shown, active ones among them. Activity calls are given as the source filed them. No stated cut-off is given here; in the data, active means survival mostly below about 52% (no sharp cut-off); inactive means mostly above about 56%.

These molecules were tested on DeltatarO mutant (assay: growth inhibition of S. aureus wild type versus tarO mutant, primary screen, teichoic acid synthesis inhibitors, RN4220, OD600 (AID 463173)). Conditions: OD600, 18 h, hits give low values, screened at 18.75 µg/mL (by protocol).
With `Cc1cccc(C(=O)NCC2(N(C)C)CCCCC2)c1` the survival was inactive: 85%.
In the case of `COc1cc(C(=O)NCC2(N(C)C)CCCCC2)cc(OC)c1OC`, the survival is reported as inactive: 88%.
`CN1C2CCC1CC(OC(=O)C(O)(c1ccccc1)c1ccccc1)C2` (configuration not stated) was tested, and the survival was inactive: 78%.
`CC(C)Oc1ccc(C(=O)NCC2(N(C)C)CCCCC2)cc1` was tested, and the survival was inactive: 86%.
For `COc1cccc(C(=O)NCC2(N3CCOCC3)CCCCC2)c1`, the survival was inactive: 96%.
For `CC(C)COc1ccc(C(=O)NCC2(N(C)C)CCCCC2)cc1`, the survival was inactive: 96%.
For `COc1ccc(C(=O)NCC2(N(C)C)CCCCC2)cc1Cl`, the survival was inactive: 88%.
In the case of `CCOc1cccc(C(=O)NCC2(N(C)C)CCCCC2)c1`, the survival is reported as inactive: 98%.
For `CN(C)C1(CNC(=O)c2ccccc2[N+](=O)[O-])CCCCC1`, the survival was inactive: 97%.
In the case of `CCCCOc1ccccc1C(=O)NCC1(N(C)C)CCCCC1`, the survival is reported as inactive: 87%.
For `CN(C)C1(CNC(=O)c2cccc(Cl)c2)CCCCC1`, the survival was inactive: 93%.
With `CN(C)C1(CNC(=O)c2ccccc2F)CCCCC1` the survival was inactive: 96%.
